Source: ChEMBL document CHEMBL3596175, “Synthesis and in vitro kinetic evaluation of N-thiazolylacetamido monoquaternary pyridinium oximes as reactivators of sarin, O-ethylsarin and VX inhibited human acetylcholinesterase (hAChE)” (2015)

Experiment: Acid dissociation constant, pKa of the compound by UV-visible spectrophotometry

Point of comparison: `O=C(C[n+]1ccc(/C=N/O)cc1)Nc1nc(-c2ccccc2)cs1.[Cl-]`, pKa 8.27. Against it:
- O=C(C[n+]1cccc(/C=N/O)c1)Nc1nccs1.[Cl-] — higher, 8.47
- CCOC(=O)c1csc(NC(=O)C[n+]2ccc(/C=N/O)cc2)n1.[Cl-] — within 0.2 log units, 8.32
- COc1ccc(-c2csc(NC(=O)C[n+]3ccc(/C=N/O)cc3)n2)cc1.[I-] — higher, 8.54
- CCOC(=O)Cc1csc(NC(=O)C[n+]2cccc(/C=N/O)c2)n1.[Cl-] — higher, 8.54
- O=C(C[n+]1ccc(/C=N/O)cc1)Nc1nccs1.[Cl-] — within 0.2 log units, 8.39
- CCOC(=O)c1csc(NC(=O)C[n+]2cccc(/C=N/O)c2)n1.[Cl-] — within 0.2 log units, 8.17
- Cc1ccc(-c2csc(NC(=O)C[n+]3cccc(/C=N/O)c3)n2)cc1.[Cl-] — higher, 8.77
- O=C(C[n+]1cccc(/C=N/O)c1)Nc1nc(-c2ccccc2)cs1.[I-] — higher, 8.85
- Cc1ccc(-c2csc(NC(=O)C[n+]3ccc(/C=N/O)cc3)n2)cc1.[Cl-] — within 0.2 log units, 8.38
- CCOC(=O)Cc1csc(NC(=O)C[n+]2ccc(/C=N/O)cc2)n1.[Cl-] — within 0.2 log units, 8.42
- COc1ccc(-c2csc(NC(=O)C[n+]3cccc(/C=N/O)c3)n2)cc1.[I-] — higher, 8.92
